Experimental data: paper PMC5034805 (Journal of Clinical Pharmacology, 2015)

Experiment: Safety evaluation in the ketoconazole interaction study
Format: in vivo, human (patients with advanced cancer)
Conditions: ketoconazole 400 mg daily days 4-8 with romidepsin 8 mg/m^2

Q: With `CC(=O)N1CCN(c2ccc(OCC3COC(Cn4ccnc4)(c4ccc(Cl)cc4Cl)O3)cc2)CC1` (stereo not shown) [ketoconazole] as the compound, how does the “Effect on the QT interval” value read?
A: No effect on the QT interval
